## Apparent affinities of Ab-14 variants for a coronavirus HR2 peptide

The measurements come from Engelhart et al. 2022 (doi:10.1038/s41597-022-01779-4) through the FLAb antibody collection.

Target peptide (SARS-CoV-2 spike, HR2 region): PDVDLGDISGINAS

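The starting antibody came from a phage panning campaign against this peptide. Variants in AAYL50 differ from the parent at up to three CDR positions; double and triple changes were sampled at random. The assay is AlphaSeq: two haploid yeast populations carry antibody and antigen on their surface. The frequency of each diploid, read from paired DNA barcodes, reflects how well the two displayed proteins bind. Read counts were normalised to the haploid input and turned into Kd by a linear fit to BCL2-family pairs of known affinity, for each replicate. Mating was done three times.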

Each scFv is VH, three GGGGS repeats, VL, as in the parent Ab-14, and differs from it in the CDRs of the light chain only.
VH: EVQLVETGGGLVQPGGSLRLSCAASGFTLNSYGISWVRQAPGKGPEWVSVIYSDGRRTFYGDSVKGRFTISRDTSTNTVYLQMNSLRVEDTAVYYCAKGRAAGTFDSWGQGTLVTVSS
VL: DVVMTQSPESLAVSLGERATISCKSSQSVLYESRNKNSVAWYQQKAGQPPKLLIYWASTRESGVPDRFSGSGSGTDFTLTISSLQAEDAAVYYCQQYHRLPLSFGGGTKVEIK

Positions count from residue 1 of the parent VL; T59W puts W in place of T.
Every variant below is changed at T59 of the VL (sequential numbering).
The Kd shown is the geometric mean over detected replicates; a lower Kd is a better binder.
Where no diploid with the target was found in any replicate, the entry reads "no signal": below detection, most likely a poor binder, though not proof of it.
Three control strains display no target. For library AAYL50, 18% of the pairings with them gave a signal, with a median of 15 µM and one signal in twenty below 970 nM, so weak values seen in few replicates may be background. The control count says in how many pairings with the empty strains this scFv gave a signal.
Parent in this assay: reference entry 4.4 nM, copy in this library 48 nM.

Variant T59W+S103V showed 1.5 µM (2 of 3 replicates; controls 1 of 9).
Variant K24A+T59D+L102N showed 960 nM (3 of 3 replicates; controls 6 of 9).
Variant T59I+H98C+S103A showed 80 nM (3 of 3 replicates; controls 1 of 9).
Variant T59R+R60I+Y97D showed 25 µM (3 of 3 replicates; controls 4 of 9).
Variant N37T+S38N+T59Y showed no signal (0 of 3 replicates; controls 2 of 9).
Variant A57H+T59F+L100Q showed no signal (0 of 3 replicates; controls 1 of 9).
Variant Q27R+T59E+R60L showed no signal (0 of 3 replicates; controls 0 of 9).
Variant V39R+T59S+Q96W showed no signal (0 of 3 replicates; controls 1 of 9).
Variant S28P+W56Q+T59H showed 1.9 nM (3 of 3 replicates; controls 2 of 9).
Variant S58T+T59M+L100K showed 62 µM (1 of 3 replicates; controls 1 of 9).
Variant S26R+R34T+T59R showed 170 nM (3 of 3 replicates; controls 1 of 9).
Variant K36P+V39Y+T59H showed no signal (0 of 3 replicates; controls 0 of 9).
Variant K24P+S33M+T59M showed no signal (0 of 3 replicates; controls 0 of 9).
Variant T59R showed no signal (0 of 3 replicates; controls 0 of 9).
Variant K24N+T59C showed 20 nM (3 of 3 replicates; controls 1 of 9).
Variant L30W+Y31M+T59G showed 79 nM (3 of 3 replicates; controls 4 of 9).
Variant T59L showed 4.3 nM (3 of 3 replicates; controls 0 of 9).
Variant S33N+R34Q+T59G showed 250 nM (1 of 3 replicates; controls 0 of 9).
Variant A40V+T59F showed no signal (0 of 3 replicates; controls 0 of 9).
Variant T59K+Q95V showed no signal (0 of 3 replicates; controls 0 of 9).
Variant Q27Y+T59Q+H98S showed 7.0 nM (3 of 3 replicates; controls 4 of 9).
Variant K24T+Q27L+T59H showed 20 µM (2 of 3 replicates; controls 1 of 9).
Variant L30A+T59R+H98M showed 5.8 nM (3 of 3 replicates; controls 0 of 9).
Variant L30P+T59L+R99A showed 37 nM (3 of 3 replicates; controls 1 of 9).
Variant T59Y+R99S showed no signal (0 of 3 replicates; controls 0 of 9).
Variant R34D+T59E+E61A showed 17 nM (3 of 3 replicates; controls 1 of 9).
Variant T59Q showed 5.4 nM (3 of 3 replicates; controls 6 of 9).
Variant A57M+T59D+P101F showed 800 nM (3 of 3 replicates; controls 3 of 9).
Variant R34H+A57I+T59N showed 210 nM (1 of 3 replicates; controls 0 of 9).
Variant R34P+N37W+T59Y showed 9.2 nM (3 of 3 replicates; controls 3 of 9).
Variant T59A+R60H+R99Y showed no signal (0 of 3 replicates; controls 3 of 9).
Variant S58W+T59H+H98F showed 290 nM (2 of 3 replicates; controls 0 of 9).
Variant N37R+A40E+T59E showed no signal (0 of 3 replicates; controls 3 of 9).
Variant L30E+N35P+T59Q showed 7.0 nM (3 of 3 replicates; controls 1 of 9).
Variant V29G+T59C+Q95M showed 56 nM (3 of 3 replicates; controls 0 of 9).
Variant S58P+T59H showed no signal (0 of 3 replicates; controls 1 of 9).
Variant T59Q+Q95L showed 16 µM (1 of 3 replicates; controls 2 of 9).
Variant T59I+Y97N+R99Y showed 38 µM (2 of 3 replicates; controls 1 of 9).
Variant S28N+R34F+T59R showed 25 nM (3 of 3 replicates; controls 6 of 9).
Variant E32K+N35M+T59I showed 23 nM (3 of 3 replicates; controls 1 of 9).
Variant S28W+T59P+H98T showed 3.1 µM (1 of 3 replicates; controls 1 of 9).

For reference, 4 entries of the list once more:

changes	Kd (apparent)	replicates with signal	signal with controls
N37R+A40E+T59E	no signal	0/3	3/9
K24P+S33M+T59M	no signal	0/3	0/9
S58P+T59H	no signal	0/3	1/9
S28P+W56Q+T59H	1.9 nM	3/3	2/9